Experimental data taken from patent US7749984B2, “Computer-based model for identification and characterization of non-competitive inhibitors of nicotinic acetylcholine receptors and related ligand-gated ion channel receptors” (priority 2003, dated 2010).

Protein sequences, listed by entry. Tags and fused reporters are not part of them. Residues count along the entry.
UniProt P04757, 26-499: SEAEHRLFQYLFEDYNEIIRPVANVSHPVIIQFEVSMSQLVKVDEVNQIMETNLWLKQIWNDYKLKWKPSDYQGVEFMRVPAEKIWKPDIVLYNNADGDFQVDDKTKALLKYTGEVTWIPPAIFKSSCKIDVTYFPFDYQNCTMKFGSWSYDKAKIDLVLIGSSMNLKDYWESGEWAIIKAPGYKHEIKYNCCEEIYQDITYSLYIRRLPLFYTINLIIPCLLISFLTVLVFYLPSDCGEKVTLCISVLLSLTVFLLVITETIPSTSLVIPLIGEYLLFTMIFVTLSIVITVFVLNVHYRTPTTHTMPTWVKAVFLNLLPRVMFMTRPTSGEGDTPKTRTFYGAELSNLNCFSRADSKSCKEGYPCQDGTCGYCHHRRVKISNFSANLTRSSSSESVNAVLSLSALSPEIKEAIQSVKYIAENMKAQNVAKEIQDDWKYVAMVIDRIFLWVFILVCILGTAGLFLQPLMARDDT
UniProt P12392, 21-495: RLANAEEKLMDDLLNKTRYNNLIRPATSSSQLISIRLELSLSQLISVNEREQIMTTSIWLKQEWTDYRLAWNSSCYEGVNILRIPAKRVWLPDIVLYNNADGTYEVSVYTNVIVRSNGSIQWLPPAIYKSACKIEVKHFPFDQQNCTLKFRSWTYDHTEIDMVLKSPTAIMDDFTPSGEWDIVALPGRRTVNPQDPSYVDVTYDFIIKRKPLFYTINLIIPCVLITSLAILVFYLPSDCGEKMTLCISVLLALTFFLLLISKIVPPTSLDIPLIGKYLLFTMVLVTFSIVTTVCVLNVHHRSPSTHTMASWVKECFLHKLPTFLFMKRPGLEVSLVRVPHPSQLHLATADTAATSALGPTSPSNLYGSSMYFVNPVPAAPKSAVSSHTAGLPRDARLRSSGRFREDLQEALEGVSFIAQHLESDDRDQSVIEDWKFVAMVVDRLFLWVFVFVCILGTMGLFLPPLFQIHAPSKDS

Target: α3β4 nAChR (Rattus norvegicus, UniProt P04757+P12392)
Assay: biochemical
Type: binding
Design: host or cells: HEK293 (KXα3β4R2)
Settings: log K chromatographic equilibrium constant

With `CNC1(C)C2CCC(C2)C1(C)C` (stereo not shown) [mecamylamine] the Kd was 148 nM.
